Assay results as given in US8563545B2, “Compound useful for the treatment of degenerative and inflammatory diseases” (Galapagos NV, priority 2009, dated 2013).

The chains behind the UniProt entries cited, without tags or fusion partners. Residues count along the entry.
UniProt P23458, 850-1154: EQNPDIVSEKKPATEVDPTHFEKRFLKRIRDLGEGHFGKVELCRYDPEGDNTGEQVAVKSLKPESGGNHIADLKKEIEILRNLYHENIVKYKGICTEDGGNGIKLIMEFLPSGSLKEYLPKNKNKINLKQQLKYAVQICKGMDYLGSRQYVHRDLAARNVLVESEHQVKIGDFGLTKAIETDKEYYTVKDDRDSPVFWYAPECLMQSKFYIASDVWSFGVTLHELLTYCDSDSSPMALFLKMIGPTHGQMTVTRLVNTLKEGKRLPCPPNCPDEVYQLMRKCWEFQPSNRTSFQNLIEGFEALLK

Biological target: JAK1 (Homo sapiens (Human), UniProt P23458)
Assay: JAK1 inhibition assay
Format: biochemical

- IC50: 0.0509 µM and 0.0521 µM
Structure (SMILES): O=C(Nc1nc2cccc(-c3ccc(CN4CCOCC4)cc3)n2n1)C1CC1 [Compound 2, N-(5-(4-(morpholinomethyl)phenyl)-[1,2,4]triazolo[1,5-a]pyridin-2-yl)cyclopropanecarboxamide]

“And” between values parts separate entries of the source, which are not always exact repeats. Equal entries are not always repeated.
